Reference: article PMC12640937, “Integrating drug effects on individual cardiac ionic currents and cardiac action potentials to understand nonclinical translation to clinical ECG changes” (Frontiers in Pharmacology, 2025)

Protein sequences, listed by entry. Tags and fused reporters are not part of them. Lines headed by an entry give the natural chain unless they say otherwise; changes in a name come on top. Residues count along the entry.
UniProt Q13936, 1-2138 isoform Q13936-12: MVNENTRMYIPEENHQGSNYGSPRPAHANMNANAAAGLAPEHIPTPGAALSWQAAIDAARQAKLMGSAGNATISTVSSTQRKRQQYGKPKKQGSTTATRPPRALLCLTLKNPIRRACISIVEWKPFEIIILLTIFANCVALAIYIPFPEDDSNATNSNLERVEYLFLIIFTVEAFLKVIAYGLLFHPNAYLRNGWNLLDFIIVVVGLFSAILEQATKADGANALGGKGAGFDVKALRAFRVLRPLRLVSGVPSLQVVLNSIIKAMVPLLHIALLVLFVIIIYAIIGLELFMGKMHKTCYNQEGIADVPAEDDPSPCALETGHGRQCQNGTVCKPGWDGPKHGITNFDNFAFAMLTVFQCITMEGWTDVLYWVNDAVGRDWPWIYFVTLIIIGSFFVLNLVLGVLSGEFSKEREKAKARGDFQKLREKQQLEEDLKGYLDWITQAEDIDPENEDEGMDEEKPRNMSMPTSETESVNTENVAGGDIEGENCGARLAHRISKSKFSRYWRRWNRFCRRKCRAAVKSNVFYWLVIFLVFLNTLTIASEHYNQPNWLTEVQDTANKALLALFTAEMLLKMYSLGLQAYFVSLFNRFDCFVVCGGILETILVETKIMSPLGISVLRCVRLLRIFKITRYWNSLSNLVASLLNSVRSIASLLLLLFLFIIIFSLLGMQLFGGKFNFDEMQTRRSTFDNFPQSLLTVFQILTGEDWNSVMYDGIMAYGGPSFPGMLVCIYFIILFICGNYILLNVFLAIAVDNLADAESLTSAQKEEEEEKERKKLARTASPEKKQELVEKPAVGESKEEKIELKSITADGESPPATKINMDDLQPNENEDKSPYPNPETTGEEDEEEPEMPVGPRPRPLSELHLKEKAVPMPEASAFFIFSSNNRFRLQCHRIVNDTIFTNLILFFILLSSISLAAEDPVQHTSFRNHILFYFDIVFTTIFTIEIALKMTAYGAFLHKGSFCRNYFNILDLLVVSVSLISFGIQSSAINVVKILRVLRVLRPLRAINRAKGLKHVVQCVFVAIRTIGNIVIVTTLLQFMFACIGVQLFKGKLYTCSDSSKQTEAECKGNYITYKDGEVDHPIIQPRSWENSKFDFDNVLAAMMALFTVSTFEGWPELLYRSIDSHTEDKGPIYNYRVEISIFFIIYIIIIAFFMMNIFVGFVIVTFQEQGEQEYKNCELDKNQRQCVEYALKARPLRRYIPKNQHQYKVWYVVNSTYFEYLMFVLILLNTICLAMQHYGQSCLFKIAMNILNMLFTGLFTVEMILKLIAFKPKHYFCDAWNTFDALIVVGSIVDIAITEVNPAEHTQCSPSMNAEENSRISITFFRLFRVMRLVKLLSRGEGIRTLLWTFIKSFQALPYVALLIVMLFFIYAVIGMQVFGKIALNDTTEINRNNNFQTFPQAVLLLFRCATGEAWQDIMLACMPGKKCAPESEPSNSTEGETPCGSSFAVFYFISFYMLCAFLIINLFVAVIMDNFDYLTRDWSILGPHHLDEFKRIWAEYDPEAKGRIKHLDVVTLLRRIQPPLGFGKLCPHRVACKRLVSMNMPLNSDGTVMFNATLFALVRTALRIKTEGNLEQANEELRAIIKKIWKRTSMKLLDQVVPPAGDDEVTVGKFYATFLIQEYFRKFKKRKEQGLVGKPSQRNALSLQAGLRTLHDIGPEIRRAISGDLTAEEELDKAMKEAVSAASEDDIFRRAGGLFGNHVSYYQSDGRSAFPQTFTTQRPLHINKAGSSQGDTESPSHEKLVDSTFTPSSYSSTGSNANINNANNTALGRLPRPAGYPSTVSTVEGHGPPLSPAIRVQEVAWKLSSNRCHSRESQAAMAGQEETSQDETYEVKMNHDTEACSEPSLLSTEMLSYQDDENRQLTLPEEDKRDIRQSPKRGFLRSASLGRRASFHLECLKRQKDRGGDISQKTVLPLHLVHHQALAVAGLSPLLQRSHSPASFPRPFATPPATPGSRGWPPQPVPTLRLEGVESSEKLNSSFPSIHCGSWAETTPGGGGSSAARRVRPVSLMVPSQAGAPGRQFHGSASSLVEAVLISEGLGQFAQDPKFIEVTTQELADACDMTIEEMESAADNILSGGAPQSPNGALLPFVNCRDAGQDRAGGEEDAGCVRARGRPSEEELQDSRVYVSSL

Target: ICaL (CHO cells expressing hCaV1.2 α1C, β2, α2δ1 subunits) (Homo sapiens, UniProt Q13936)
Assay: cell-based

Cc1cccc(C)c1OCC(C)N (stereo not shown) [mexiletine]
IC50: 22.6 µM
